Consider one molecule from ChEMBL document CHEMBL4052797, “N-alkyl-[1,1'-biphenyl]-2-sulfonamide derivatives as novel broad spectrum anti-epileptic drugs with efficacy equivalent to that of sodium valproate” (2017).

The test system of this experiment is Mus musculus. Briefly: Therapeutic index, ratio of TD50 for neurotoxicity in po dosed mouse to ED50 for po dosed 6-Hz induced seizure mouse model.

Take `CCCC(CCC)C(=O)[O-].[Na+]` [VALPROATE SODIUM]: the “Ratio TD50/ED50” value turned out to be 1.
